# Measured values as given in paper PMC4216208 (Journal of Medicinal Chemistry, 2014).
# Target: T1, OvCHT1 (Onchocerca volvulus, UniProt Q25615)
# T1 sequence (Q25615 22-497): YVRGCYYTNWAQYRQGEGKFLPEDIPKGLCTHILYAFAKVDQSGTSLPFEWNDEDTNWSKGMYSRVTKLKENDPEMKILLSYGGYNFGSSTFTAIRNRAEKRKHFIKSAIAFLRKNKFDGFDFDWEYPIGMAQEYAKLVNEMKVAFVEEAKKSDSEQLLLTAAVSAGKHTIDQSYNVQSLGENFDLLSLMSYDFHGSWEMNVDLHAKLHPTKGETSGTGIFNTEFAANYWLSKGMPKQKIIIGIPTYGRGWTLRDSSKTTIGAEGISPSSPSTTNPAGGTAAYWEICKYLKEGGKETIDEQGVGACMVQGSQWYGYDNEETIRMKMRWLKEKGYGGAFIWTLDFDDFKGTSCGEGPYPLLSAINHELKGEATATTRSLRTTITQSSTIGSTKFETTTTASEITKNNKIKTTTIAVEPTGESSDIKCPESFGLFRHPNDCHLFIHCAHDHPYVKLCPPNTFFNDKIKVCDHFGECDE
# Experiment: O. volvulus chitinase
# Type: biochemical
compound,measurement,value
"O=C(Nc1ccc(Oc2ccc(Cl)cc2)cc1)c1cc(I)cc(I)c1O [Compound 3h, N-(4-(4-Chlorophenoxy)phenyl)-2-hydroxy-3,5-diiodobenzamide]",enhancement of potency against OvCHT1 relative to 3a,~3 fold
